Values quoted from earlier work in patent publication US7247645B2, “Dihydropyridine derivatives” (Ajinomoto Co., Inc., priority 1999, dated 2007).
pIC50: −log10 of the molar value.

By UniProt entry, the sequences of proteins in these tests, tags left out. Residues count along the entry.
UniProt P22002, whole entry: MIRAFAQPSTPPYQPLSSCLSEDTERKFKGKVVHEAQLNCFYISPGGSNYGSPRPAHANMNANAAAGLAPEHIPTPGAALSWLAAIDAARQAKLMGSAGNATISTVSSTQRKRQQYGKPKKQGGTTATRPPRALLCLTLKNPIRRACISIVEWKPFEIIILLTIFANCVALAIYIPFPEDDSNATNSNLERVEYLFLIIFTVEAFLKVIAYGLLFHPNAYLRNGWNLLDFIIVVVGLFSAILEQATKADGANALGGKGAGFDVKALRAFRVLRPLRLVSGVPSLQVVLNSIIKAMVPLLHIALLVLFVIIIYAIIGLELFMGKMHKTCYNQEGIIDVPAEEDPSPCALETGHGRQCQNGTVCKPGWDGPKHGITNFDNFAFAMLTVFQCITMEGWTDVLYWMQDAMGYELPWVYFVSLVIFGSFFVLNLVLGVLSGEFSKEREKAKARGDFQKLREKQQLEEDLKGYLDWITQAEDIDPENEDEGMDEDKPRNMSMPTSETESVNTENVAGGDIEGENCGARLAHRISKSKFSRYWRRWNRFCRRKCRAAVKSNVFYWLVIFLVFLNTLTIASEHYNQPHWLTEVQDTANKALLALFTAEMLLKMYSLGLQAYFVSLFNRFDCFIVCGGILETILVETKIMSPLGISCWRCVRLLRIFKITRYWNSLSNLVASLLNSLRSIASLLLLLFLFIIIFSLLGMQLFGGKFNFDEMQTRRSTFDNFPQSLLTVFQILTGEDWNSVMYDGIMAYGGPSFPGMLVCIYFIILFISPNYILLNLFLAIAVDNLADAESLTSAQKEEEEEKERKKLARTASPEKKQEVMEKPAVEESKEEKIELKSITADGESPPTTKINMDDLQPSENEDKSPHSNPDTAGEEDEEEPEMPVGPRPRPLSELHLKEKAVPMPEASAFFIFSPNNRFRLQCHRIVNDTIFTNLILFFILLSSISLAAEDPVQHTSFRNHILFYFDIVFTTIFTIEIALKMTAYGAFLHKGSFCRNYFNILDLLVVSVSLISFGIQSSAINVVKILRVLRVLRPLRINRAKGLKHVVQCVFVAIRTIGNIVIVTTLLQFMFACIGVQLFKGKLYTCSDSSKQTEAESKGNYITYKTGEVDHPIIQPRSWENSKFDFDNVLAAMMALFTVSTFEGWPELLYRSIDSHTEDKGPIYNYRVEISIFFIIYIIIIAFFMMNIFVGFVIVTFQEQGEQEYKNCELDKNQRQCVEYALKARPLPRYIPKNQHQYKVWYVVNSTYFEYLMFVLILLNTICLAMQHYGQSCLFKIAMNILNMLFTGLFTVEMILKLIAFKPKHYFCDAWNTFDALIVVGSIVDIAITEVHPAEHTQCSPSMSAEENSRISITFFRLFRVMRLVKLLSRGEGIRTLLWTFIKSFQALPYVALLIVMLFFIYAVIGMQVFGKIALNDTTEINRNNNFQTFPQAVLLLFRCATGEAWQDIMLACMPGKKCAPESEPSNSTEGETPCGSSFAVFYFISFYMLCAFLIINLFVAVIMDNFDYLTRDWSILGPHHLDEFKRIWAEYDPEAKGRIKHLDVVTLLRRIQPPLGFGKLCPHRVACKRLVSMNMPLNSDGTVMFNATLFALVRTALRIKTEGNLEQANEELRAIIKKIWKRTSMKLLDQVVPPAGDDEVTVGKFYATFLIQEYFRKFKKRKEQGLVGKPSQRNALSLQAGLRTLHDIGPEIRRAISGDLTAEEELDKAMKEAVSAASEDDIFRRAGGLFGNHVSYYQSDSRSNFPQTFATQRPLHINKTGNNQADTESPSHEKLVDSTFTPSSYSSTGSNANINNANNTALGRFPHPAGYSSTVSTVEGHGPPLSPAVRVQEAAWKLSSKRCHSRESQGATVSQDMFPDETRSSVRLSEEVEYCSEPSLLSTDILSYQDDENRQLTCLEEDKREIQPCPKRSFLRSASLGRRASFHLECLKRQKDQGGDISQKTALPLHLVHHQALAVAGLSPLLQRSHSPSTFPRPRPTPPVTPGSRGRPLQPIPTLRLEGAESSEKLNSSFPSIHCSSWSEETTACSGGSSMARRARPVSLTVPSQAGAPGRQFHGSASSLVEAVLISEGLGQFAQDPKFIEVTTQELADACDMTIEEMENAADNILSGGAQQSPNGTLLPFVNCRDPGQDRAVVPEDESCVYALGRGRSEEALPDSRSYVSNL
UniProt P54287, whole entry partner: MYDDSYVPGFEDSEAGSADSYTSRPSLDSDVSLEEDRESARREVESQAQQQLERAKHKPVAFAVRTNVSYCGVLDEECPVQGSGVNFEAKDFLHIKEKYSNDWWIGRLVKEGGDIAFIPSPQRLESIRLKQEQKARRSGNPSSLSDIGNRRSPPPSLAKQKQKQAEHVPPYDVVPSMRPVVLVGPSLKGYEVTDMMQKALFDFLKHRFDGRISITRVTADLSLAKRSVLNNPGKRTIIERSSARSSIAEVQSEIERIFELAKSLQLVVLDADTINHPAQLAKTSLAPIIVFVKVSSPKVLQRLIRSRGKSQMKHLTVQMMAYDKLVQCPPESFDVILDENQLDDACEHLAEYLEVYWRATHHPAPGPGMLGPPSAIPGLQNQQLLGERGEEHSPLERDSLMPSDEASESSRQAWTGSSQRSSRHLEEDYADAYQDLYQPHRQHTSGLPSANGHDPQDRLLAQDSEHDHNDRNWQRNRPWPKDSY
UniProt P54290, 25-1091 partner limits assumed: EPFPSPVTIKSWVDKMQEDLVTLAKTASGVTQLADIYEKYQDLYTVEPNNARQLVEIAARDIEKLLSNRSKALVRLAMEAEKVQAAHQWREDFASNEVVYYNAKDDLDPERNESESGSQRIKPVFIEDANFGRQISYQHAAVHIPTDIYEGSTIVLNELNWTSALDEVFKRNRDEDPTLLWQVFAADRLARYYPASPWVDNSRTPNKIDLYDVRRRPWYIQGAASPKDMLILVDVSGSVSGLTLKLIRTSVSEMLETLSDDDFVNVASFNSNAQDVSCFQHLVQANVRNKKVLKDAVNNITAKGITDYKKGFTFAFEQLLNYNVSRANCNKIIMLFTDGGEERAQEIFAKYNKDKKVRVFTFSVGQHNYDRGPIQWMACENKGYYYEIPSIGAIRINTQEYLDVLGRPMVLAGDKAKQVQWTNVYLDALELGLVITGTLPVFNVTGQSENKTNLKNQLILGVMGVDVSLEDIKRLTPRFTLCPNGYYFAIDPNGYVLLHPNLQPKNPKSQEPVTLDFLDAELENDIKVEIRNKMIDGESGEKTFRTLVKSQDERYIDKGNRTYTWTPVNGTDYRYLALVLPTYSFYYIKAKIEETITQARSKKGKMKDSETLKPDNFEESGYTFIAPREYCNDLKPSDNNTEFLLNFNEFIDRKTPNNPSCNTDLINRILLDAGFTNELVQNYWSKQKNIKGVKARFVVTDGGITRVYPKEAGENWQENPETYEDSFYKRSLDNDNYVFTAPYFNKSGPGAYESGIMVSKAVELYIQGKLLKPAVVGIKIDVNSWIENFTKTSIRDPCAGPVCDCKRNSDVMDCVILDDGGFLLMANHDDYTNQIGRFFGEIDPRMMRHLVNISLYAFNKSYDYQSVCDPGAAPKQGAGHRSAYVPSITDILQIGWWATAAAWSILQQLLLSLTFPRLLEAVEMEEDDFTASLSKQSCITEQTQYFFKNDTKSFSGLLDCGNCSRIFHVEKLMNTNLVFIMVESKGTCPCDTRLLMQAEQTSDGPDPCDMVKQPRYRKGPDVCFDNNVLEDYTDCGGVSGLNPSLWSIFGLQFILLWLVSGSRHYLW

Target: L-type calcium channel (Rattus norvegicus, UniProt P22002)
Settings: read-out: antagonistic effect on L-type calcium channels IC50; comparison compound of WO 9849144; cited from earlier work

## COc1cccc(C2C(C(=O)O)=C(C)NC(C)=C2C(=O)OCC=Cc2ccccc2)c1 (stereo not shown)
  pIC50: 6.60
